The values that follow come from patent US20190274981A1, “OLEANOLIC ACID ENHANCES MESENCHYMAL STROMAL CELL OSTEOGENIC POTENTIAL BY INHIBITION OF NOTCH SIGNALING” (Board of Supervisors of Louisiana State University and …, priority 2018, published 2019).

For experiment [1], the system named is phospho-smad1/5/8. The experiment can be described thus: RT-PCR and western blot of phospho-smad1/5/8. The class given is cell-based, human. The conditions noted are these: MSCs, day 7, OA 20 μM, BMP2 200 ng/ml. As for the experimental part: Real time RT-PCR: cDNA was synthesized from 1 μg total RNA using the SuperScript III reverse transcriptase kit (Invitrogen) in a final volume of 20 μl. Primers were designed with the IDT SCI primer design tool (Integrated DNA Technologies, San Diego, Calif.). RT-PCR experiments were performed with a Bio-Rad C1000 thermal cycler (Bio-Rad, Hercules, Calif.), and real-time PCR experiments were performed with an ABI prism 7500 (Applied Biosystems, Grand Island, N.Y.) in triplicate. Sequence for each primer pair were: Hes1, forward primer 5′-[…]-3′, reverse primer 5′-[…]-3′; ALP, forward primer 5′-[…]-3′, reverse primer 5′-AGTCAGGTTGTT CCGATTCA-3′; Runx2, forward primer 5′-[…]-3′, reverse primer 5′-[…]-3′; Osteocalcin (OC), forward primer 5′-[…]-3′, reverse primer 5′-[…]-3′; Osteopontin (OPN), forward primer 5′-[…]-3′, reverse primer 5′-[…]-3′; Type I collagen (Col1a1), forward primer 5′-[…]-3′, reverse primer 5′-[…]-3′; β-actin, forward primer 5′-[…]-3′; reverse primer 5′-TCCACCACCC TGTTGCTGTA-3′. Samples were analyzed in triplicate, and the raw data consisted of PCR cycle numbers required to reach a fluorescence threshold level. The relative expression level of target genes was normalized to (β-actin gene. […]

The test system of experiment [2] is MSCs. The experiment can be described thus: MSC osteogenic differentiation assay, ALP staining. The conditions noted are these: OA 20 μM and/or BMP2 200 ng/ml, seven days, osteogenic medium. It is filed as cell-based, human. As for the experimental part: Cell culture and treatment: The human MSCs were purchased from Lonza. Oleanolic acid was obtained from Sigma-Aldrich (Aldrich-5504). A 100 mM solution of OA was prepared in dimethyl sulfoxide (DMSO), and all test concentrations were prepared by diluting the stock solution in cell culture medium. Recombinant human BMP2 was purchased from R&D. The cells were cultured in DMEM supplemented with 10% fetal bovine serum (Gibco BRL, Rockville, Md.). After expansion, cells were exposed to media containing OA and/or BMP2 for certain days. […] At the end, cells were harvested at different time points for analyses as described below.
MSC osteogenic differentiation assay: Osteogenic differentiation assays of MSCs were performed using the Osteogenic differentiation bulletKit® (Lonza). MSCs were cultured at 200,000 cells/well in 6-well plates to confluence. Stem cell growth media was then replaced with osteogenic media supplied with or without OA and BMP2. After seven days of culture, alkaline phosphatase (ALP) staining, RNA, and protein isolation were performed as described in our published protocols.

Experiment [3] deals with MSC/HA pellet. The experiment can be described thus: In vivo ectopic bone-formation assay. The conditions noted are these: nude mice, six weeks, BMP2 with or without OA. The protocol:
In vivo ectopic bone-formation assay: All animal studies were reviewed and approved by the Animal Ethics Committee of Louisiana State University Health Sciences Center. 1.0×10^6 total MSCs were re-suspended in 80 μl of MSC growth media containing 20 μM OA and gently mixed with 50 mg of hydroxyapatite (HA) powder (Himed). The composites were then centrifuged for two minutes at 200 rpm to form a MSC/HA pellet. For ectopic bone formation surgery, ten 8-week-old NOD.CB17^−Prkdescid/J mice (Charles River) (up to 2 implants for each animal) were anesthetized and the dorsal skin was cleaned with 70% ethanol. Two incisions of ˜1 cm in length were performed on the opposite flanks of the back, and then a pocket was formed by blunt dissection. Finally the MSC/HA pellets were implanted. Six weeks post-surgery, transplanted BMSC/HA pellets were harvested for gross observation and Masson's trichrome staining. Immunohistochemistry (IHC) staining was performed using anti-osteopontin antibody (7C5H12, Abcam, USA) according to our published protocols. All animal work was performed in accordance with institution approved guidelines.
OA enhances BMP2-mediated ectopic bone formation: To further confirm the capacity of OA induced osteogenesis in vivo, ectopic ossicle assays using 8-week old nude mice was performed. […]

B1: BMP2: Recombinant human BMP2 purchased from R&D; growth factor bone morphogenetic protein 2 (protein, UniProt P12643 283-396, looked up)
Bone morphogenetic protein 2: QAKHKQRKRLKSSCKRHPLYVDFSDVGWNDWIVAPPGYHAFYCHGECPFPLADHLNSTNHAIVQTLVNSVNSKIPKACCVPTELSAISMLYLDENEKVVLKNYQDMVVEGCGCR
For B1, in experiment [1], the “gene expression of p-smad1/5/8 (RT-PCR)” value is on record as “significantly increased”. Also, in experiment [2], the “ALP activity (ALP staining)” value is reported as “significant increase”. For the same molecule, the “bone matrix in MSC/HA pellet (Masson's trichrome)” value in experiment [3] was “increase of bone matrix”.
